Biological target: LSD1-CoREST (Homo sapiens, UniProt O60341)
Format: binding

## COc1cc2nc(NCCCN(C)C)nc(N(C)C)c2cc1OC [MC3767, N^2-(3-(dimethylamino)propyl)-6,7-dimethoxy-N^4,N^4-dimethylquinazoline-2,4-diamine]
  Kd: reduced affinity for LSD1
